Measurements from PubChem BioAssay AID504845 (National Center for Advancing Translational Sciences (NCATS), 2011).
The entries are a selection whose mix differs from that of the whole data set. Records with an inconclusive call do not appear. Calls of active or inactive are those of the source. Calls follow the shape of the dose curve; as a rule, active = well fitted inhibition curve with a large enough effect; inconclusive = small, poorly fitted or top-dose-only effect; inactive = no such curve, though single readings can be large or run the other way.

By UniProt entry, the sequences of proteins in these tests, tags left out. Where a name states a change or a piece, a line headed by the entry shows the natural chain unless it says otherwise.
UniProt P49798: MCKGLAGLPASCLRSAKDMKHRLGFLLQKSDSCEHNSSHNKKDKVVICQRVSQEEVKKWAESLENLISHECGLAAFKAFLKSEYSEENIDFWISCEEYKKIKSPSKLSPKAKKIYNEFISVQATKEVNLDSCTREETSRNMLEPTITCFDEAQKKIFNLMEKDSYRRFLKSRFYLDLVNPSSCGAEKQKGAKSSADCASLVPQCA

Target: Regulator of G-protein signaling 4 (Homo sapiens) (UniProt P49798)
Experiment: Inhibitors of Regulator of G Protein Signaling (RGS) 4: qHTS; also: nearly all actives have a fitted effect of over 75% in size
Settings: Transcreener GDP fluorescence polarization, RGS4-accelerated GTP hydrolysis
[1] = at 114 µM (top of the series) unless noted
% is scaled to controls: 0 for no effect and ±100 for the full control effect.

SMILES	activity change, negative = inhibition [1]	activity change, negative = inhibition (at 114 µM (top of the series))
CC(=O)Nc1ccc([As](=O)(O)O)c(O)c1	inactive: -26.5%	
CC(=O)Nc1ccc(Oc2c([N+](=O)[O-])cc([N+](=O)[O-])cc2[N+](=O)[O-])cc1	inactive: -7.37%	
Cc1ccccc1CN(C)C(=O)COC(=O)C(O)(c1ccccc1)c1ccccc1	inactive: -21.9%	
C[C@H]1OP(=O)(Oc2ccccc2)C[C@@H]2O[C@@H]21 (stereo not given in full)	inactive: -7.95%	
C[C@@H]1C=CCP(=O)(Oc2ccccc2)O1 (stereo not given in full)	inactive: -4.02%	
CC(=O)c1ccc(N2CC2c2ccncc2)cc1 (stereo not given)	inactive: -5.83%	
N#C/C(=C\c1ccc(N(CCBr)CCBr)cc1)C(N)=O	inactive: -28.4%	
COC(=O)C1(C)COP(=O)(NCc2ccccc2)OC1 (stereo not given)	inactive: 2.62%	
CC(C)(C)C(=O)NC(Sc1ccccc1)C(Cl)(Cl)Cl (stereo not given)	inactive: 19.2%	
CCc1cc(O)c([N+](=O)[O-])c(C)c1[N+](=O)[O-]	inactive: 6.27%	
O=P1(Nc2nc3ccc(Cl)cc3s2)COc2ccccc2O1 (stereo not given)	inactive: -3.99% [at 11.4 µM]	
CCOc1ccc(C2=NCC(CBr)S2)cc1 (stereo not given)	inactive: 19.7%	
CC(NC(=O)COC(=O)C(O)(c1ccccc1)c1ccccc1)c1ccccc1 (stereo not given)	inactive: -29.3%	
Cc1ccccc1OP(=O)(Nc1ccccn1)Oc1ccccc1C	inactive: -1.78%	
O=c1c2cc([N+](=O)[O-])ccc2[nH]c2c([N+](=O)[O-])cc([N+](=O)[O-])cc12	inactive: -17.5%	
CN(C)C(=O)Oc1noc2ccccc12	inactive: -12.7%	
O=C(OC1CN2CCC1CC2)c1ccccc1 (stereo not given)	inactive: 15.4%	
CCC(=O)N1C2C3N(C(=O)CC)C1C1N(C(=O)CC)C(C(N1C(=O)CC)N3C(=O)CC)N2C(=O)CC	inactive: 10.6%	
COC(=O)c1cc2c(s1)N=C(c1ccccc1)N(C)P2(=O)N1CCOCC1 (stereo not given)	inactive: 10.7%	
Cc1ccc(OP(=O)(Nc2ccccn2)Oc2ccc(C)cc2)cc1	inactive: -50.1%	
CC(=O)NC(SC(=S)N(CC(C)C)CC(C)C)C(Cl)(Cl)Cl (stereo not given)	inactive: 10.2%	
O=P1(N(CCCl)CCCl)OCCC2CCCCN21 (stereo not given)	inactive: 6.15%	
c1ccc(-c2nn[nH]n2)c(-c2nn[nH]n2)c1	inactive: 6.55%	
Cc1ccc(NP(=O)(Oc2cccc(C)c2)Oc2cccc(C)c2)nc1	inactive: -6.94%	
O=C(NC1CCS(=O)(=O)C1)NP(=S)(Oc1ccccc1)Oc1ccccc1 (stereo not given)	inactive: -9.27%	

SMILES	activity change, negative = inhibition [1]	activity change, negative = inhibition (at 114 µM (top of the series))
CCNC(=S)/N=C(\N)N[N+](=O)[O-]	inactive: 11.6%	
O=C(OC1CN2CCC1CC2)c1cccc(Cl)c1 (stereo not given)	inactive: -0.11%	
C(Cc1nn[nH]n1)Cc1nn[nH]n1	inactive: 27.3%	
Nc1ccc([As](=O)(O)c2ccc([N+](=O)[O-])cc2)cc1	inactive: -8.13%	
O=[As](O)(c1ccccc1)c1ccc(O)cc1	inactive: 12.7%	
O=[N+]([O-])c1ncn(CCn2cnc([N+](=O)[O-])n2)n1	inactive: 1.69% [at 11.4 µM]	
CC(=O)NC(SC(=S)N(C)C)C(Cl)(Cl)Cl (stereo not given)	inactive: 2.46%	
O=[N+]([O-])c1ccc(O)c(/C=N/Nc2ccc([N+](=O)[O-])cc2[N+](=O)[O-])c1	inactive: -0.527%	
O=P(Nc1nc2ccccc2s1)(c1ccccc1)c1ccccc1	inactive: -5.88%	
C[C@H]1OP(=O)(Oc2ccccc2)[C@H](O)[C@H](O)[C@H]1N=[N+]=[N-] (stereo not given in full)	inactive: 7.44%	
CN(C)C1(CNC(=O)c2ccc(Cl)c(S(N)(=O)=O)c2)CCCCC1	inactive: -17.5%	
O=P(Nc1ccccn1)(c1ccc(Br)cc1)c1ccc(Br)cc1	inactive: -16.8%	
COc1ccc(N)c([N+](=O)[O-])c1[N+](=O)[O-]	inactive: -1.46%	
c1nnnn1CCn1cnnn1	inactive: 2.39%	
O=P(Nc1nccs1)(c1ccccc1)c1ccccc1	inactive: 18.7%	
CC(C)C(=O)NC(Sc1ccccc1)C(Cl)(Cl)Cl (stereo not given)	inactive: -6.06%	
CC1CCN(C(=O)Oc2c(Cl)cc(Cl)c3cccnc23)CC1	inactive: -11.6%	
CC(C)=N/N=C(\N)N[N+](=O)[O-]	inactive: 9.75%	
CN(C)C(=O)OCCc1n(C)cc[n+]1C	inactive: -11.2%	
CCN(/C(=N/P(=O)(N1CCOCC1)N1CCOCC1)N1CCOCC1)c1ccc(OC)cc1	inactive: 2.63%	
Nc1ccc([As](=O)(O)c2ccc(N)cc2)cc1	inactive: 14.5%	
Cc1ccc(NP(=O)(Oc2ccccc2)Oc2ccccc2)nc1	inactive: 4.29%	
O=[N+]([O-])c1cc([N+](=O)[O-])c(CCNc2ccccc2)c([N+](=O)[O-])c1	inactive: -20.9%	
CC(=O)N1C2C3N(C(C)=O)C1C1N(C(C)=O)C(C(N1C(C)=O)N3C(C)=O)N2C(C)=O	inactive: -12.1%	
O=[N+]([O-])c1cccc2n[nH]nc12	inactive: 0.332%	

SMILES	activity change, negative = inhibition [1]	activity change, negative = inhibition (at 114 µM (top of the series))
COc1ccc(C2=NCC(CBr)S2)cc1 (stereo not given)	inactive: -50.9%	
O=C(O)CNc1ccc([As](=O)(O)O)cc1	inactive: 27%	
COC(=O)C1(C)COP(=O)(Nc2ccccc2)OC1 (stereo not given)	inactive: -2.52%	
O=[N+]([O-])c1cccc(NC2=NCC(CBr)S2)c1 (stereo not given)	inactive: -1.46%	
O=[N+]([O-])c1ncn(CCn2ncnc2[N+](=O)[O-])n1	inactive: 6.14% [at 56.9 µM]	
O=P(/N=c1/nc(-c2ccccc2)n(-c2ccccc2)s1)(Nc1ccccc1)Nc1ccccc1	inactive: -57.2%	
O=C(Nc1cc([As](=O)(O)O)ccc1O)c1ccccc1	inactive: -11%	
O=P1(N(CCCl)CCCl)OCCCS1 (stereo not given)	inactive: 4.33%	
Nc1cccc2ccc([As](=O)(O)O)cc12	inactive: -37.1%	
CCN(N=Nc1nonc1N)c1nonc1N	inactive: -2.36%	
CCOP(=O)(Nc1ccccc1)OCC	inactive: -8.18%	
CN(C(=O)Cc1ccc(Cl)c(Cl)c1)[C@H]1CCCC[C@@H]1N1CCCC1		inactive: -13%
Cc1ccc(NP(=O)(Oc2ccccc2F)Oc2ccccc2F)nc1	inactive: 24.5%	
O=P(Nc1nc2ccc(Cl)cc2s1)(c1ccccc1)c1ccccc1	inactive: -4.92%	
CC(=O)Nc1ccc([As](=O)(O)O)cc1	inactive: -26.2%	
O=C(O)c1ccccc1[As](=O)(O)O	inactive: -4.84%	
CCCC1OP(N)(=O)OCC1CC (stereo not given)	inactive: -11.5%	
Oc1ccccc1CNc1ccccn1	inactive: 23.6%	
Nc1cc(N)c2nonc2c1[N+](=O)[O-]	inactive: -12.3%	
CC(C)CC(=O)NC(Sc1ccc(Cl)cc1)C(Cl)(Cl)Cl (stereo not given)	inactive: 19.7%	
CN1CCCC(OC(=O)C(c2ccccc2)c2ccccc2)C1 (stereo not given)	inactive: -5.86%	
Clc1ccc(Cl)c(NC2=NCC(CBr)S2)c1 (stereo not given)	inactive: -31%	
COc1ccccc1OP(=O)(Nc1ccc(C)cn1)Oc1ccccc1OC	inactive: 26.3%	
Cc1ccc(OP(=O)(Nc2nccs2)Oc2ccc(C)cc2)cc1	inactive: 27.5%	
CN(C(=O)Cc1ccc(Cl)c(Cl)c1)[C@H]1CCCC[C@H]1N1CCCC1	inactive: -6.36%	

SMILES	activity change, negative = inhibition [1]	activity change, negative = inhibition (at 114 µM (top of the series))
Cc1ccc(N/C(=N/P(=O)(N2CCOCC2)N2CCOCC2)N2CCOCC2)cc1	inactive: -17.1%	
NC(=O)c1cc([N+](=O)[O-])cc([N+](=O)[O-])c1N	inactive: 3.34% [at 56.9 µM]	
O=[N+]([O-])c1cc(Oc2ccc([N+](=O)[O-])cc2C(F)(F)F)cc([N+](=O)[O-])c1	inactive: 4.2%	
O=P1(N(CCCl)CCCl)OCCCN1CCCl (stereo not given)	inactive: 7.82%	
O=P1(N(CCCl)CCCl)Nc2ccccc2N1	inactive: 5.91%	
COc1ccc2nc(NP(=O)(c3ccccc3)c3ccccc3)sc2c1	inactive: -7.88%	
COc1cc(I)ccc1[As](=O)(O)O	inactive: -20%	
Cc1c2c(nc3ccccc13)SC(C(Cl)Cl)C2 (stereo not given)	inactive: 15.2%	
O=C(OC1CN2CCC1CC2)C12CC3CC(CC(C3)C1)C2 (stereo not given)	inactive: 21.1%	
Cc1cc(=O)[nH]c(N[N+](=O)[O-])n1	inactive: 15.8%	
CC(C)NC(=O)NP(=O)(Oc1ccccc1)Oc1ccccc1	inactive: 17%	
O=C(OC1CN2CCC1CC2)c1cccc2[nH]cnc12 (stereo not given)	inactive: -7.22%	
CCN(CC)C(=S)SC(NC=O)C(Cl)(Cl)Cl (stereo not given)	inactive: 24.6%	
O=[N+]([O-])c1cc([N+](=O)[O-])c(-c2ccn[nH]2)s1	inactive: -33.3%	
ClCCSc1nnc(-c2cccnc2)o1	inactive: 16.6%	
COC(=O)C1(C)COP(=O)(N2CCCCCC2)OC1 (stereo not given)	inactive: -13.7%	
CC(C)c1ccc(OP(=O)(Nc2ccccn2)Oc2ccccc2F)cc1 (stereo not given)	inactive: -8.33%	
Cc1ccc(OP(=O)(Nc2ccc([N+](=O)[O-])cn2)Oc2ccc(C)cc2)cc1	inactive: 1.06%	
C[As](=O)(O)c1cccc(C(=O)O)c1	inactive: 10.3%	
O=[As](O)(c1ccc(O)cc1)c1ccccc1O	inactive: -31.9%	
O=[N+]([O-])c1ccc(-c2cc([N+](=O)[O-])c(O)c([N+](=O)[O-])c2)cc1	inactive: -35.3%	
COc1cc(C(=O)NCC2(N3CCOCC3)CCCCC2)ccc1OCC(C)C	inactive: 16.9%	
O=P(Nc1ccccn1)(c1cccc2ccccc12)c1cccc2ccccc12	inactive: -7.5%	
O=[N+]([O-])c1ccc(Nc2ccc(Oc3ccc([N+](=O)[O-])cc3[N+](=O)[O-])cc2)c([N+](=O)[O-])c1	inactive: 10.8%	
CCOC(=O)Nc1cccc([As](=O)(O)O)c1	inactive: 4.2% [at 56.9 µM]	
